Values joined by “and” are separate entries in the source; they are usually repeats but may differ in a detail not shown here. Equal entries are not always repeated.
Columns and labels:
[1] = tested on: melanoma and colorectal TILs; assay: Post thaw analysis of cryopreserved squeeze processed TILs (effect of DMSO and HSA); type: cell-based
Protocol: To evaluate whether freeze-thaw (including any effect from one or more of the cryopreservatives) has an effect on the squeeze processed TILs described herein, the following methods were used and the mRNA translation and phenotypic expression were assessed. Briefly, cryopreserved, squeezed melanoma and colorectal TILs were thawed and resuspended in CTS OpTmizer media. Post thaw cell recovery and viability were measured via NC-200. Cells were plated in tissue culture-treated plates and incubated for 4, 24 hours, and 8 days in a 37° C. incubator. The TILs were squeezed were assessed at each time point including t=0 (immediately post thaw) by flow cytometry for viability, surface levels of mbIL-2 and mbIL-12, and phenotypic markers such as CCR7, CD45RO, CD62L, CD127, KLRG-1, CD25, CD69, CD39, CD103, and CD25.
To assess the potential impact from DMSO, the following TILs were formulated in varying concentrations of DMSO (i.e., 0%, 1.25%, 2.5%, and 5%): (1) TILs squeeze processed with mRNA encoding membrane-bound LL-2 and mRNA encoding IL-12; and (2) non-squeeze processed TILs. Each of the formulated samples also contained 5% human serum albumin. Then, the TILs were cryopreserved and subsequently thawed as described above.
Each of these formulated samples contained 5% DMSO. Then, the TILs were cryopreserved and subsequently thawed as described above.

pSTAT5 (Tyr694) = assay: pSTAT5 expression in mbIL-2 and mbIL-7 TILs starved of rhIL-2 (FACS); type: cell-based, human; conditions: first 48 hours after cell processing, over control TILs
Protocol: Fresh post-REP TILs were collected from a 6-well G-Rex plate, centrifuged at 400 rcf at room temperature, and then washed and resuspended to 3-10M/mL in AIM V media without rhIL-2 to remove rhIL-2-dependent induction of pSTAT5 prior to squeeze processing. Cells were transferred to a T25 flask and cultured at 37° C. for 24 hr. Then, the cells were then prepared for squeeze-processing. The cells were counted, filtered through a 40-um cell strainer, washed, and the concentration was adjusted to 25M/mL by adding XVivo-15.
As shown above in Table 10, Group A was used as a control (i.e., not contacted with any payload and not squeeze processed). Group B was squeeze processed without any payload at room temperature using a microfluidic constriction (70 μm depth, 4.5 μm width, and 10 μm length) at 30 psi. Groups C-E were squeeze processed at room temperature with the payloads shown above, i.e., Group C: 500 μg/mL mbIL-2 mRNA; Group D: 350 μg/mL mbIL-7 mRNA; Group E: 500 μg/mL mbIL-2 mRNA+350 μg/mL mbIL-7 mRNA. Groups C-E were squeeze processed using the same conditions as in Group B (i.e., microfluidic constriction. 10 μm depth, 4.5 μm width, and 10 μm length; at 30 psi). […]
At 4, 24, 48 and 72 hrs, 200 ul of cells were aspirated and centrifuged at 400 rcf for 4 minutes at room temperature. […] The cells were then analyzed using an Attune Flow cytometer

TILs [2] = assay: Effect of cytokine (IL-2 or IL-15) during TIL expansion (colorectal tumor); type: cell-based
Protocol: To assess the effect of different cytokines (IL-2 or IL-15) during the initial TIL expansion and culturing, the following methods were used. Briefly, freshly resected colorectal tumor was rinsed in 1× Hank's Balanced Salt Solution (HBSS) with 10 µg/mL gentamicin and dissected into 8-27 mm^3 fragments using a forceps and scalpel. Duplicate wells of a G-Rex6M plate were filled with CTS OpTmizer media with 100 U/mL penicillin, 100 μg/mL streptomycin, and either 6,000 IU/mL recombinant IL-2, 500 U/mL recombinant IL-15, or 3,000 U/mL recombinant IL-15 Five tumor fragments, 8-27 mm^3 in size, per well were added to the G-Rex6M plate. The G-Rex6M plate was then placed in a 37° C., 5% CO2 incubator for 3 days.
On day 3, the G-Rex6M plate was removed from the incubator. 20 mL of CTS OpTmizer media with 100 U/mL penicillin, 100 μg/mL streptomycin, and either 6,000 IU/mL of IL-2, 500 U/mL IL-15, or 3,000 U/mL IL-15 were added on top of the 20 mL of media in each of wells of the G-Rex6M plate. The G-Rex6M plate was returned to the 37° C., 5% CO2 incubator. On day 7 and 10, the G-Rex6M plate was removed from the incubator. 20 mL of culture media were removed from each well and 20 mL of CTS OpTmizer media with 100 U/mL penicillin, 100 μg/mL streptomycin, and either 6,000 IU/mL of IL-2, 500 U/mL IL-15, or 3,000 U/mL IL-15 were added back. The G-Rex6M plate was returned to the 37° C., 5% CO2 incubator.
[…] The number and viability of the TILs was assessed using a NucleoCounter NC-200.

TILs [3] = assay: Effect of anti-CD28 on TIL expansion (melanoma tumor); type: cell-based
Protocol: To assess the effect that anti-CD28 stimulation has on during the initial TIL expansion and culturing, the following methods were used. Briefly, freshly resected melanoma tumor was rinsed in 1× Hank's Balanced Salt Solution (HBSS) with 10 μg/mL gentamicin and dissected into 8-27 mm^3 fragments using a forceps and scalpel. Duplicate wells of a G-Rex6M plate were filled with CTS OpTmizer media with 100 U/mL penicillin, 100 μg/mL streptomycin, and either 6,000 IU/mL recombinant IL-2, 3,000 U/mL recombinant IL-15+0.05 μg/mL anti-CD28, or 3,000 U/mL recombinant IL-15+0.5 μg/mL anti-CD28. Five tumor fragments, 8-27 mm^3 in size, per well were added to the G-Rex6M plate. The G-Rex6M plate was then placed in a 37° C., 5% CO2 incubator for 5 days.
On day 5, the G-Rex6M plate was removed from the incubator 20 mL of CTS OpTmizer media with 100 U/mL penicillin, […] streptomycin, and either 6,000 IU/mL of IL-2 or 3,000 U/mL IL-15 were added on top of the 20 mL of media in each of wells of the G-Rex6M plate. The G-Rex6M plate was returned to the 37° C., 5% CO2 incubator. On day 9, the G-Rex6M plate was removed from the incubator. 20 mL of culture media were removed from each well and 20 mL of CTS OpTmizer media with 100 U/mL penicillin, 100 μg/mIL streptomycin, and either 6,000 IU/mL of IL-2 or 3,000 U/mL IL-15 were added back. The G-Rex6M plate was returned to the 37° C., 5% CO2 incubator.
On day 13, the TILs were harvested and transferred to a 50 mL conical tube. The number and viability of the TILs was assessed using a NucleoCounter NC-200.

[4] = 6000 IU/mL IL-2, replicate wells

Substance	viability at various time points post-thaw ([1]; HSA 0% to 10% in formulation with 5% DMSO)	membrane-bound IL-2 and membrane-bound IL-12 expression post-thaw ([1]; HSA 0% to 10%, 4 hours post-thaw)	pSTAT5 signal (pSTAT5 (Tyr694))	Cell Count on Day 13 (TILs [2]; [4])	Viability on Day 13 (TILs [2]; [4])	TIL expansion in culture (TILs [2]; colorectal tumor fragments)	Cell Count on Day 13 (TILs [3]; [4])	Viability on Day 13 (TILs [3]; [4])	TIL expansion in culture (TILs [3]; melanoma tumor fragments)
HSA: human serum albumin in cryopreservation formulation	less HSA could result in improved viability	greatest membrane-bound IL-2 and membrane-bound IL-12 expression was observed with reduced HSA concentration							
IL-2: recombinant (human) IL-2 added to culture media			increased pSTAT5 signal over control TILs	2.11 × 10^7 and 4.00 × 10^7	87.2% and 95.5%	promote TIL expansion	1.06 × 10^6 and 5.22 × 10^7	97.6% and 94.4%	promote TIL expansion

Reference: patent publication US20250327027A1, “METHODS TO GENERATE ENHANCED TUMOR INFILTRATING LYMPHOCYTES THROUGH MICROFLUIDIC DELIVERY” (STEMCELL TECHNOLOGIES CANADA INC., priority 2021, published 2025)
